Inhibition data for 26 compounds are collected here from PubChem BioAssay AID602429 (Sanford-Burnham Center for Chemical Genomics, 2012).

By UniProt entry, the sequences of proteins in these tests, tags left out.
UniProt P63165, whole entry: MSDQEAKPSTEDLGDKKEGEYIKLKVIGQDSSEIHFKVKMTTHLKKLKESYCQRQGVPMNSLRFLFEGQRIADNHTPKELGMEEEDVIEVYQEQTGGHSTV

SMILES strings stand for the structures. The entries are a selection whose mix differs from that of the whole data set. Some of these compounds have results that are not shown, active ones among them. Active and inactive are the calls of the source. Rule as the data show it: active = inhibition above about 37%; inactive = the rest.

The assay addresses Small ubiquitin-related modifier 1 (Homo sapiens) (UniProt P63165). In words: modulators of SUMO1 protein-protein interactions, primary screen, biochemical, uHTS (AID 602429). The settings on record: SUMO1 binding to a labelled peptide, TR-FRET, 1 h; at 20 µM; active compounds read high. Background: TR-FRET usually uses a lanthanide donor and a delayed reading to cut background.
As a reminder, the inhibition is the drop in the measured response relative to a control, in per cent. Regarding `CC(C)Oc1ccc(C(=O)NCC2(N(C)C)CCCCC2)cc1`, the inhibition is inactive: -0.348%.
As for `O=C(OCCN1CCCC1)C(O)(c1ccccc1)c1ccccc1`, the inhibition is inactive: -6.01%.
On to `CN(C)c1cccc(C(=O)NCC2(N(C)C)CCCCC2)c1`, for which the inhibition is inactive: 0.162%.
As for `C=C(C)C#CC(O)(C(=O)OC1CCN(C)CC1)c1ccccc1` (stereo unspecified), the inhibition is inactive: -1.19%.
In the case of `COc1ccc(Br)c(C(=O)NCC2(N3CCCCC3)CCCCC2)c1`, the inhibition is inactive: -2.55%.
`O=C(OC1CN2CCC1CC2)C(CO)(c1ccccc1)c1ccccc1` (stereo unspecified): the inhibition is inactive: -1.24%.
As to `O=C(NCC1(N2CCCCC2)CCCCC1)c1cccc(Cl)c1`, the inhibition is inactive: 2.76%.
Regarding `COc1cccc(C(=O)NCC2(N3CCCCC3)CCCCC2)c1`, the inhibition was inactive: -1.89%.
For `COc1ccc(Cl)cc1C(=O)NCC1(N(C)C)CCCCC1`, the inhibition is inactive: -6.73%.
The value for `COc1cc(C(=O)NCC2(N(C)C)CCCCC2)c([N+](=O)[O-])cc1OC` was inactive: -12.5%; that for `CN(C)C1(CNC(=O)c2ccc(Br)cc2)CCCCC1` was inactive: 0.159%; that for `COc1ccc(C(=O)NCC2(N(C)C)CCCCC2)cc1` was inactive: 2.28%.
Take `CCN1CCCC(OC(=O)C2(O)c3ccccc3C=Cc3ccccc32)C1` (stereo unspecified): the inhibition is inactive: -2.07%.
Turning to `Cc1cc(C(=O)NCC2(N3CCCCC3)CCCCC2)ccc1[N+](=O)[O-]`, the inhibition is inactive: -22.1%.
`O=C(NCC1(N2CCCCC2)CCCCC1)c1cccc(Br)c1`: the inhibition was inactive: 5.94%.
In the case of `C=CCN1CCN(CCOC(=O)C(O)(c2ccccc2)c2ccccc2)CC1` it was inactive: -0.493%.
In the case of `O=C(NCC1(N2CCCCC2)CCCCC1)c1cc(F)c(F)cc1Cl`, the inhibition was inactive: -3.37%.
In the case of `Cc1ccccc1C(=O)NCC1(N2CCCCC2)CCCCC1` it was inactive: -2.06%; in that of `CN(C)c1ccc(C(=O)NCC2(N(C)C)CCCCC2)cc1`, inactive: 2%; in that of `CN(C)C1CCCC1OC(=O)C(O)(c1ccccc1)c1ccccc1` (stereo unspecified), inactive: -1.3%.
In the case of `Cc1ccc(C(=O)NCC2(N3CCCCC3)CCCCC2)cc1` it was inactive: 7.56%.
For `CCN(CC)CC(C)C(C)OC(=O)C(O)(c1ccccc1)c1ccccc1` (stereo unspecified), the inhibition is inactive: 4.13%.
Regarding `COc1cc(SC)ccc1C(=O)NCC1(N(C)C)CCCCC1`, the inhibition was inactive: -0.0885%.
With `CC(C)N1C(=O)CC2(CCN(CCOC(=O)C(O)(c3ccccc3)c3ccccc3)CC2)C1=O`, the inhibition was inactive: 2.43%.
Take `CN1[C@@H]2CC[C@H]1CC(OC(=O)C(O)(c1ccccc1)c1ccccc1)C2` (stereo partly specified): the inhibition is inactive: -0.858%.
For the compound `O=C(NCC1(N2CCCCC2)CCCCC1)c1cc([N+](=O)[O-])ccc1Cl`, the inhibition was inactive: -20.1%.
